Tested on: BT474C1-Luci Mono1 SC xenograft
Assay: SC (subcutaneous) BT474C1-Luci Mono1 xenograft model
Type: in vivo, nude mice
Settings: T-DXd alone 10 mg/kg once weekly
Experimental: Tumor cell suspension at 5 × 10^6 were injected subcutaneously in a total volume of 0.2 ml (1:1 with ECM Gel) into each mouse. 17β-ESTRADIOL (90-day release, 0.36 mg/pellet) were implanted 24 hrs before cells were injected subcutaneously. Tumor nodules were measured in two dimensions with caliper and the tumor volume was calculated using the following formula: tumor volume = (length × width^2) × 0.5. Tumor-bearing mice were randomized into different treatment groups when the mean tumor volume reached around 150 mm^3.

T-DXd [reference compound]
antitumor efficacy: complete tumor remission

— PMC10327353 (Breast Cancer Research : BCR, 2023)
